According to patent publication US11701371B2, “ENPP1 inhibitors and their use for the treatment of cancer” (THE BOARD OF TRUSTEES OF THE LELAND STANFORD JUNIOR …, priority 2017, dated 2023):

Tested on: 4T1-luciferase tumor
Test: 4T1-luciferase tumor model with IR, cGAMP and anti-CTLA-4: tumor volume and survival
Type: in vivo, mouse
Conditions: compound 1 in addition to cGAMP, intratumoral after 20 Gy IR

COc1cc2ncnc(N3CCC(CCP(=O)(O)O)CC3)c2cc1OC [Compound 1, dimethyl (2-(1-(6,7-dimethoxyquinazolin-4-yl)piperidin-4-yl)ethyl)phosphonic acid]
cure rate: 10%
